Results: PubChem BioAssay AID651661 (Broad Institute, 2012)
Only a part is listed here, and it is no random draw. Calls of active or inactive are those of the source.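 Rule for the calls: active = mean inhibition of at least 50% after viability correction, with every replicate also passing that limit; inconclusive = mean reaches 50% but only one of two replicates passes; inactive = the rest.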

assay: blockers of EWS/Fli transcriptional output – A673 cells, NR0B1 luciferase, luminescence, MLPCN library, primary screen (AID 651661); conditions: A673 NR0B1-luciferase reporter, viability-normalised; at 12.6 µM; hits give high values;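 note: firefly luciferase signal divided by Alamar Blue viability fluorescence both relative to DMSO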

Structure (SMILES)	inhibition
CCC(=O)N(c1ccccc1)C1(COC)CCN(CCn2nnn(CC)c2=O)CC1	inactive: -1.52%
CCC(=O)N(c1ccccc1)C1(COC)CCN(CCc2cccs2)CC1	inactive: -6.37%
